Data: publication PMC6728138, “Quantitative mapping of protein-peptide affinity landscapes using spectrally encoded beads” (eLife, 2019)

Target: calcineurin (CN) heterodimer, wild type: N-terminally 6-His-tagged human calcineurin A truncated at residue 400 with the calcineurin B subunit, Q08209;P63098
Experiment: MRBLE-pep (peptides on spectrally encoded beads)
Conditions: parent: est. 0.0 kcal/mol; read off a plot

| Substance | ddG [kcal/mol] |
| --- | --- |
| PKIVIT peptide (PVIVIT scaffold with V2K) V4I | -0.15 |
| PKIVIT peptide (PVIVIT scaffold with V2K) V4R | 0.15 |
